Each structure is given as a SMILES string. The list shows a part of the results, in another mix than the full data. Some results for these compounds are left out of this collection, so the calls shown say nothing about other tests. Activity calls are given as the source filed them. Cut-off read from the data, not from the text of the source: active = activation above about 30% (passing the limit was not always enough); inconclusive = no clear call, values can overlap the other calls.

This experiment is described as follows: Wnt/beta-catenin pathway activators, primary screen, cell-based, plate reader, single point (AID 743398).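 Note: 0% = neutral control wells and 100% = positive control wells.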 The conditions noted are these: Wnt/beta-catenin reporter cell assay, activator, at 9.35 µM, active compounds read high.
As to `C=CCN1CCN(CCOC(=O)C(O)(c2ccccc2)c2ccccc2)CC1`, the activation is inactive: -0.404%. `O=C(NCC1(N2CCCCC2)CCCCC1)c1cc(F)c(F)cc1Cl`: the activation was inactive: -0.34%.

Consider `Cc1cc(C(=O)NCC2(N3CCCCC3)CCCCC2)ccc1[N+](=O)[O-]`, for which the activation is inactive: -1.8%. For the molecule `CCN1CCCC(OC(=O)C2(O)c3ccccc3C=Cc3ccccc32)C1` (centres undefined), the activation is inactive: 0.544%. In the case of `O=C(NCC1(N2CCCCC2)CCCCC1)c1cccc(Br)c1`, the activation was inactive: 5.05%. Under `COc1ccc(C(=O)NCC2(N(C)C)CCCCC2)cc1` stands inactive: -1.86%.

Regarding `Cc1ccccc1C(=O)NCC1(N2CCCCC2)CCCCC1`, the activation was inactive: -0.569%. With `CN(C)C1CCCC1OC(=O)C(O)(c1ccccc1)c1ccccc1` (centres undefined), the activation is inactive: -0.469%. In the case of `CN(C)c1ccc(C(=O)NCC2(N(C)C)CCCCC2)cc1`, the activation is inactive: 4.6%. Under `CC(C)N1C(=O)CC2(CCN(CCOC(=O)C(O)(c3ccccc3)c3ccccc3)CC2)C1=O` stands inactive: -2.58%. Turning to `CCN(CC)CC(C)C(C)OC(=O)C(O)(c1ccccc1)c1ccccc1` (centres undefined), the activation is inactive: 2.57%. The same measure for `COc1cc(SC)ccc1C(=O)NCC1(N(C)C)CCCCC1`: inactive: 0.318%; for `Cc1ccc(C(=O)NCC2(N3CCCCC3)CCCCC2)cc1`: inactive: -2.13%; for `O=C(NCC1(N2CCCCC2)CCCCC1)c1cc([N+](=O)[O-])ccc1Cl`: inactive: -1.97%.

As to `CN1[C@@H]2CC[C@H]1CC(OC(=O)C(O)(c1ccccc1)c1ccccc1)C2` (some centres undefined), the activation was inactive: -0.648%. As for `COc1ccc(Br)c(C(=O)NCC2(N3CCCCC3)CCCCC2)c1`, the activation is inactive: 25.7%. In the case of `C=C(C)C#CC(O)(C(=O)OC1CCN(C)CC1)c1ccccc1` (centres undefined), the activation is inactive: -6.04%. Under `CC(C)Oc1ccc(C(=O)NCC2(N(C)C)CCCCC2)cc1` stands inactive: 1.41%; under `O=C(OCCN1CCCC1)C(O)(c1ccccc1)c1ccccc1`, inactive: 4.9%.

Regarding `COc1cccc(C(=O)NCC2(N3CCCCC3)CCCCC2)c1`, the activation was inactive: 1.05%. As for `COc1ccc(Cl)cc1C(=O)NCC1(N(C)C)CCCCC1`, the activation was inactive: 0.847%. On to `O=C(NCC1(N2CCCCC2)CCCCC1)c1cccc(Cl)c1`, for which the activation is inactive: 0.609%. Take `CN(C)C1(CNC(=O)c2ccc(Br)cc2)CCCCC1`: the activation was inactive: 0.349%. `COc1cc(C(=O)NCC2(N(C)C)CCCCC2)c([N+](=O)[O-])cc1OC`: the activation is inactive: 1.08%.
